Assay results reported in doi:10.1101/2023.10.19.563203.

Amino acid sequences for entries named in this document (tags omitted). A change or cut given only in a name is not applied to a line headed by its entry. Residues count along the entry.
UniProt P02679: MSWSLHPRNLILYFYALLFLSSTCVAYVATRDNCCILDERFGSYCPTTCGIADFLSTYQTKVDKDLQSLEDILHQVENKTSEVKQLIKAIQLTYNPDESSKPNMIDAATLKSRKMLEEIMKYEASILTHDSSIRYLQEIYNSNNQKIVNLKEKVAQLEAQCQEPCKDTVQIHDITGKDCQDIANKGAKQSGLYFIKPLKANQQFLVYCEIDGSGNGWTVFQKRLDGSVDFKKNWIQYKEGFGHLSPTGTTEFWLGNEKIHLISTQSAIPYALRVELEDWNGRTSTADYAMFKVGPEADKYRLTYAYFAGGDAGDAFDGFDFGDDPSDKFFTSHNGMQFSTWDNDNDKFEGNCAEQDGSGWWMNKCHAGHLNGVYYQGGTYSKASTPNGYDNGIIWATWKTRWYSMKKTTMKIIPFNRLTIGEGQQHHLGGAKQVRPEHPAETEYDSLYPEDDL
UniProt P02745, 23-245: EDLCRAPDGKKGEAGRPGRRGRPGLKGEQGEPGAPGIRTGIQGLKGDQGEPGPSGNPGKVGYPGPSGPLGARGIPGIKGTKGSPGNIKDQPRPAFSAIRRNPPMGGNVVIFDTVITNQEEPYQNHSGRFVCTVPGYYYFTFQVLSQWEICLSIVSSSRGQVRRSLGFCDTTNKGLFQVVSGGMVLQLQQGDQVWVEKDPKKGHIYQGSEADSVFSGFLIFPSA
C1q, UniProt P02746, 28-253: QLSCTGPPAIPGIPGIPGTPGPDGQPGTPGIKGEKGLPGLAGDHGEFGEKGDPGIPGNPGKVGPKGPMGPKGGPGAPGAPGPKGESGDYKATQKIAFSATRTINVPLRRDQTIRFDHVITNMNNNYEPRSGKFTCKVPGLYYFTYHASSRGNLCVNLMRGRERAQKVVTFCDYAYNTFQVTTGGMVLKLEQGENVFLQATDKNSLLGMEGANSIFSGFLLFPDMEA
C1q, UniProt P02747, 29-245: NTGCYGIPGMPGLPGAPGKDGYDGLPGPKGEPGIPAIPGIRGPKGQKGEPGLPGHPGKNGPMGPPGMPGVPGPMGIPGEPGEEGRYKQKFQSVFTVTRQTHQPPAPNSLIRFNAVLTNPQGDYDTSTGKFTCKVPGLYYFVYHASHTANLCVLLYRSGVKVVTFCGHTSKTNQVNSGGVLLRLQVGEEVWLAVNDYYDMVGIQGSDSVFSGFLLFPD

Legend:
[1] = target: fibrin (human) (UniProt P02679); assay: radioligand binding
[2] = target: fibrin (human) (UniProt P02679); assay: co-sedimentation

binding at 75 mM NaCl as percent of that at 20 mM NaCl [1]: < 50%
percent of input bound (500,000 cpm/well) [1]: 2.4%
percent bound after 16 h, after 5 M urea wash (Table 1) [2]: 28.5%
percent bound after 16 h, non-denaturing wash [2]: 24%
percent bound at 30 min, after 5 M urea wash [2]: 11%
percent bound at 30 min, non-denaturing wash [2]: 13%
percent bound at 960 min, after 5 M urea wash [2]: 17.6%
percent bound to plasma clots at 70 mM salt [2]: 2.5%
Substance: C1q (from UniProt P02745 23-245; P02746 28-253; P02747 29-245) (complex)
